Assay results taken from paper PMC10303687 (Protein Science : A Publication of the Protein Society, 2023).

Target: T1, FITC-labeled p53TAD_(H. sapiens)^15–26 (human (Homo sapiens), UniProt P04637 15-26, FITC label (position not given))
T1 construct: Probe of the fluorescence polarisation experiments; also called FITC‐labeled p53TAD_(Human); FITC-labeled human p53TAD^15–26 peptide; source: synthetic peptide
Experiment: fluorescence polarisation; saturation: FITC-labeled human p53TAD 15–26 constant at 6 or 10 nM, dilution series of MDM2; room temperature, 20 mM sodium phosphate pH 7.4, 150 mM NaCl, 1 mM TCEP
Settings: both partners purified

B1: MDM2_(L. camtschaticum) SWIB domain (domain or fragment)
chain: GPMGSSSGVRKEDLVRPVPLLLRLLQSVGAKSDTFTVQQVIHHLGQYIKTKQLYDKQRQHIVHCKGDPLGEVFGVESFSLKEPSSSSGSVGALLAKALSIAATDKRKDHTGVGDGAVKES
- Kd: 2700 ± 300 nM
